Results published in patent US20250339374A1, “BONDED MICROPARTICULATES PREPARATION AND APPLICATIONS THEREOF” (Venkor Corporation, priority 2022, published 2025).

Assay: Solubility in water of solid particulate material (descriptive)
Assay type: physicochemical
Conditions: description in composition table

## Zinc Gluconate
  Solubility: Solubility- soluble in water
